The target of one experiment is Keap1 Kelch domain (Homo sapiens, UniProt Q14145). The experiment in a line: SPR-based solution competition assay. Type of experiment: binding.
For another experiment, the system named is Keap1-Nrf2 complex. The following applies: cited from earlier work.
The target in the next experiment is Keap1. The following applies: read-out: KD (ITC); ITC ref 38; cited from earlier work.

Protein sequences, listed by entry. Tags and fused reporters are not part of them. Residues count along the entry.
UniProt Q14145, 321-609 limits assumed: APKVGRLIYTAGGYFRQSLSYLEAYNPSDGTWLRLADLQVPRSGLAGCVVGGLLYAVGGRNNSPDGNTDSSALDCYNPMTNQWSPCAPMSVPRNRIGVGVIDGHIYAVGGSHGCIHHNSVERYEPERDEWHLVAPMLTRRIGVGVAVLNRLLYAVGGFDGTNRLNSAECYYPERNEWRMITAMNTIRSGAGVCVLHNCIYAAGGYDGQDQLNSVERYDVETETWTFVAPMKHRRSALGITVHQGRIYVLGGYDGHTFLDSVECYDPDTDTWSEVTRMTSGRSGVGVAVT

Usually Kd stands for the free concentration of one partner at which half of the binding sites on the other are occupied at equilibrium, for simple one-to-one binding.

As to `CC(C)C[C@H](NC(=O)[C@H](Cc1ccccc1)NC(=O)[C@H](CCC(=O)O)NC(=O)CNC(=O)[C@@H](NC(=O)[C@H](CCC(=O)O)NC(=O)[C@H](CCC(=O)O)NC(=O)[C@@H](N)CC(=O)O)[C@@H](C)O)C(=O)O` [H-8mer-OH], the equilibrium dissociation constant (Kd) at Keap1 Kelch domain is greater than 1 µM.

Consider LDEETGEFLP, for which, in the experiment on Keap1-Nrf2 complex, the “displacement of Nrf2 from Keap1-Nrf2 complex” value is listed as “less effective”. On to LQLDEETGEFLPIQ, for which the Kd at Keap1 was 0.02 µM.

The record behind these values is article PMC3218206 (Chemical biology & drug design, 2011).
